The list shows a part of the results, in another mix than the full data. Activity calls are given as the source filed them. No stated cut-off is given here; in the data, active means FP signal below about 40; inactive means the rest.

This experiment has as its system RMI core complex (RMI1/RMI2) binding to FANCM MM2 peptide, human. Put plainly: disruptors of RMI1/RMI2 association with MM2 peptide – biochemical, fluorescence polarization, human, primary screen (AID 1159607). The settings on record: RMI core complex with F-MM2 peptide, at 33 µM, active compounds read low. On the technique in general: Fluorescence polarisation rises when a labelled molecule tumbles more slowly, as on binding a larger partner.
On to `Cc1ccccc1NC1CC(C)(C)NC(C)(C)C1`, for which the FP signal (polarization) was inactive: 55. On to `CC(C)N1CCC(N(C(=O)Cc2ccccc2)c2ccc(Cl)cc2)CC1`, for which the FP signal (polarization) is inactive: 61.
